By IC50 is commonly meant the point on the concentration scale where inhibition reaches its midpoint.

By UniProt entry, the sequences of proteins in these tests, tags left out.
UniProt P08482, whole entry: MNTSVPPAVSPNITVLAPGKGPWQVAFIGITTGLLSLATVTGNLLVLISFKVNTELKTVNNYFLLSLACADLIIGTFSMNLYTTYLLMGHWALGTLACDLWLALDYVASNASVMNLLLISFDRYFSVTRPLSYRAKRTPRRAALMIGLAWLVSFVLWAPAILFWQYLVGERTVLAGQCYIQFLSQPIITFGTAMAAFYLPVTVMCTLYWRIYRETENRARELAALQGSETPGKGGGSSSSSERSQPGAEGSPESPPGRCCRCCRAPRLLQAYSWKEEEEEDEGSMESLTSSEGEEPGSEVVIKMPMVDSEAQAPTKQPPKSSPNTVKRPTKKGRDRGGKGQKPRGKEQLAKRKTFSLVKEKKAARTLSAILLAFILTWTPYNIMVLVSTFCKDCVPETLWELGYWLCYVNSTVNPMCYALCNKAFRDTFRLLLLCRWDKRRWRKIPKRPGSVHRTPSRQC

This is an account of results in PubChem BioAssay AID859 (Vanderbilt High Throughput Screening Facility, 2007).

This assay addresses Muscarinic acetylcholine receptor M1 (Rattus norvegicus) (UniProt P08482). As to the kind of experiment: M1 inhibitors against agonist EC80 response – cell-based, calcium fluorescence, dose response (AID 859). Particulars: M1-expressing cells, antagonist mode vs EC80.
Take `O=C(OC1CN2CCC1CC2)C12CC3CC(CC(C3)C1)C2` (stereo not drawn): the IC50 is 35.9 nM.

Turning to `CCN(CC)CC(O)COC(=O)C(O)(c1ccccc1)C1CCCCC1` (stereo not drawn), the IC50 is 125 nM.

Consider `O=C(OC1CN2CCC1CC2)c1cccc(Cl)c1` (stereo not drawn), for which the IC50 is 2100 nM.
